The results in this text go back to patent US8450308B2.

Protein sequences, listed by entry. Tags and fused reporters are not part of them. Residues count along the entry.
UniProt P56817, 22-458 limits assumed: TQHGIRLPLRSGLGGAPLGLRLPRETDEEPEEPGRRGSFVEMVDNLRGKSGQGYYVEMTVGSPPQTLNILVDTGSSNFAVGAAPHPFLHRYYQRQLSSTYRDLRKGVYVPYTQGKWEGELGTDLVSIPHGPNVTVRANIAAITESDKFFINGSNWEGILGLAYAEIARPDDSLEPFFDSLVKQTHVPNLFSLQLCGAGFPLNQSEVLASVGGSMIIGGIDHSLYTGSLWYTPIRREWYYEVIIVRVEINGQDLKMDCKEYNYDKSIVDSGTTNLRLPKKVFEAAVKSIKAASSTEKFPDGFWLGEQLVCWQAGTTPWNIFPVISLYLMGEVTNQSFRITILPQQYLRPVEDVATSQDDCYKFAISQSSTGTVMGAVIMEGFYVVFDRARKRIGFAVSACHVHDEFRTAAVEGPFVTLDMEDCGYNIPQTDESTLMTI

Assay [1] has as its system H4 neuroglioma cell line that stably expresses Amyloid Precursor Protein (APP) containing the KM-NL Swedish mutation (H4-APPsw); Aβ 1-40. The assay is described as follows: BACE cell assay: soluble Amyloid Beta 1-40 (Aβ 1-40) in culture media of H4-APPsw cells. The settings on record: in vitro cell activity, secreted Aβ 1-40, overnight treatment, tested form: TFA.
The target of assay [2] is truncated human beta-secretase (residues 1-458, His6-tagged at the C-terminus) (Homo sapiens, UniProt P56817). The assay is described as follows: BACE fluorescence quench assay. It counts as biochemical. Conditions: in vitro enzyme activity, pH 4.5.

In general, IC50 refers to the concentration that inhibits the measured activity by half. Low values mean inhibition by little substance, high ones a need for much substance. In turn, `COc1ccc2c(c1)CCCC1(C2)CC2(N=C(N)N(C)O2)c2cc(-c3cccc(C#N)c3)ccc2O1` (centres unmarked) came in with an IC50 in assay [1] of 0.1 to 0.5 µM.

`CN1C(=O)C2(CC(c3ccccc3)Oc3ccc(-c4ccncc4)cc32)N=C1N` (centres unmarked) [Compound 58, 2′-amino-1′-methyl-2-phenyl-6-(pyridin-4-yl)spiro[chroman-4,4′-imidazol]-5′(1′H)-one] yielded an IC50 in assay [2] of 5 to 10 µM.
